One assay addresses T1, human receptor GPR17 (Homo sapiens, UniProt Q13304).
T1 construct: expressed in transfected cells; host or cells: human 1321N1 astrocytoma cells, calcium phosphate transfection with pcDNA3.1; plasma membranes used
The assay can be described thus: [35S]GTPγS binding assay on membranes of 1321N1 cells transfected with human GPR17. The format is biochemical. Here is the method:
A—The compounds according to the invention were evaluated for their functional activity on GPR17 using a well-known assay for GPCRs, the [^35S]GTPγS binding assay, which is based on the ability of the agonist to increase radioactive GTP binding when a GPCR is activated. The antagonist activity is evaluated according to the ability to counteract the increased [^35S]GTPγS binding induced by the LTC4 reference agonist.
The activation of GPCRs by agonists stimulates the dissociation of GDP from G-protein, thus increasing GTP binding in its place. This increase in GTP binding to G-protein can be quantified in vitro with [^35S]GTPγS. The effect of GPCR activation on [^35S]GTPγS binding is catalytic, because it increases the [^35S]GTPγS binding rate rather than [^35S]GTPγS binding equilibrium. […] For some GPCRs, the binding stimulated by the agonist (ie. the difference between GTP binding in the presence and absence of the agonist) increases with time, peaks and then falls to zero; optimal increases in [^35S]GTPγS binding induced by the agonist are often obtained before equilibrium is attained, rather than at equilibrium. […] The control and transfected cells were homogenised in 5 mM Tris-HCl and 2 mM EDTA (pH 7.4) and centrifuged at 48000 g for 15 min at 4° C. The resulting pellets (plasma membranes) were washed in 50 mM Tris-HCl and 10 mM MgCl2 (pH 7.4) and stored at −80° C. until use.
The Graph-Pad Prism program was used for the analysis and graphic presentation of the [^35S]GTPγS binding data. All the data are shown as the mean±SEM of three different experiments. The data were tested for statistical significance with the paired Student's t test or analysis of variance (one-way ANOVA), as appropriate. When significant differences were observed, the Newman-Keuls multiple comparison test (one-way ANOVA) was performed. A value of P<0.05 was considered significant.
A general note: Binding of GTPγS marks nucleotide exchange on a G protein.

Protein sequences, listed by entry. Tags and fused reporters are not part of them. Residues count along the entry.
UniProt Q13304, 29-367 limits assumed: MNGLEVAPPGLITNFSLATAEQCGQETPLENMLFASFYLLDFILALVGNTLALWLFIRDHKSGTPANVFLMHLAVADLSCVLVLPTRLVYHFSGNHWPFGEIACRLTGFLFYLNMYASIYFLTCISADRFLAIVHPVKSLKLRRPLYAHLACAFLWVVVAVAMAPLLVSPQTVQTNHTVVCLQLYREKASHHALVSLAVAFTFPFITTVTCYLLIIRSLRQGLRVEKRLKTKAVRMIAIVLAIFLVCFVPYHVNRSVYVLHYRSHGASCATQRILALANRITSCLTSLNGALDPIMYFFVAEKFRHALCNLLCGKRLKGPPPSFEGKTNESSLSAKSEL

In assay [1] the test system is oligodendrocyte precursor cells (OPCs). The assay can be described thus: Pro-myelinating activity assay on oligodendrocyte precursor cell (OPC) cultures (MBP-positive cells). The assay is classed as cell-based, Sprague-Dawley rat.

Molecules are shown by their SMILES.

Regarding `COc1ccc(CNC(=O)C(c2ccc(O)cc2)N(Cc2ccco2)C(=O)c2snc(C(N)=O)c2N)cc1` (centres unmarked) [Compound (III)], at human receptor GPR17, the “% Emax vs standard” value is recorded as 89.6%; the EC50 is 1.18 ± 0.08 nM; the “efficacy compared with reference compound LTC4 / agonist character, in words” value was “may act as a partial agonist”. The Emax on human receptor GPR17 (in % (unit assumed)) was found to be 129.7 ± 0.7. For the same compound, the “pro-myelinating activity, in words (mature cells expressing MBP)” value in assay [1] is listed as “most active”.

What is called EC50 is the concentration needed to bring the measured effect to its halfway point. Low readings indicate an effect from little substance, high ones a need for much substance.

Values taken from US20150094348A1, “GPR17-MODULATING COMPOUNDS, DIAGNOSTIC AND THERAPEUTIC USES THEREOF” (Centro Cardiologico Monzino S.p.A., priority 2010, published 2015).
